This is an account of results in patent publication US20080085889A1, “Amidomethyl-Substituted 1-(Carboxyalkyl) Cyclopentyl-Carbonylamino-Benzazepine-N-Acetic Acid Compounds, Process and Intermediate Products for Their Preparation and Pharmaceutical Compositions Containing Them” (SOLVAY PHARMACEUTICALS GmbH, priority 2003, published 2008).

Protein sequences, listed by entry. Tags and fused reporters are not part of them. Residues count along the entry.
UniProt P08473, 52-750 limits assumed: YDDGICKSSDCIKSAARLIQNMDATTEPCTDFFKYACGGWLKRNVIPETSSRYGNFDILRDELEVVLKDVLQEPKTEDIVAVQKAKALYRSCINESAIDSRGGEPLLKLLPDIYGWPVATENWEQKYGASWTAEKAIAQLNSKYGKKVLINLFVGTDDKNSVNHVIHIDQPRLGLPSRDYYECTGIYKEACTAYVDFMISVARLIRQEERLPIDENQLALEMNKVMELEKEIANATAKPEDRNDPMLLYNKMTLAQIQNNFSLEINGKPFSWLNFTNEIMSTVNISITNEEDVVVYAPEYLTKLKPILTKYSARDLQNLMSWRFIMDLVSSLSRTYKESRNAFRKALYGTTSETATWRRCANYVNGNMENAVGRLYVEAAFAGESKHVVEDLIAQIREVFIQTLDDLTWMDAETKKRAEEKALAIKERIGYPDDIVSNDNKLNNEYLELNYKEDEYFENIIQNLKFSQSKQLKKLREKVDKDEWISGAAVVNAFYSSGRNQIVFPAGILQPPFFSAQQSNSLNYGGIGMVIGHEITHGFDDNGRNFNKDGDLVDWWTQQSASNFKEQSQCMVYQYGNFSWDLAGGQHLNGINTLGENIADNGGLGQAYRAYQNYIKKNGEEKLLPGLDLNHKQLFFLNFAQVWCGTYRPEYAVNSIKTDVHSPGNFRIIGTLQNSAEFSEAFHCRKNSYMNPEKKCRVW
UniProt Q495T6, 49-779 limits assumed: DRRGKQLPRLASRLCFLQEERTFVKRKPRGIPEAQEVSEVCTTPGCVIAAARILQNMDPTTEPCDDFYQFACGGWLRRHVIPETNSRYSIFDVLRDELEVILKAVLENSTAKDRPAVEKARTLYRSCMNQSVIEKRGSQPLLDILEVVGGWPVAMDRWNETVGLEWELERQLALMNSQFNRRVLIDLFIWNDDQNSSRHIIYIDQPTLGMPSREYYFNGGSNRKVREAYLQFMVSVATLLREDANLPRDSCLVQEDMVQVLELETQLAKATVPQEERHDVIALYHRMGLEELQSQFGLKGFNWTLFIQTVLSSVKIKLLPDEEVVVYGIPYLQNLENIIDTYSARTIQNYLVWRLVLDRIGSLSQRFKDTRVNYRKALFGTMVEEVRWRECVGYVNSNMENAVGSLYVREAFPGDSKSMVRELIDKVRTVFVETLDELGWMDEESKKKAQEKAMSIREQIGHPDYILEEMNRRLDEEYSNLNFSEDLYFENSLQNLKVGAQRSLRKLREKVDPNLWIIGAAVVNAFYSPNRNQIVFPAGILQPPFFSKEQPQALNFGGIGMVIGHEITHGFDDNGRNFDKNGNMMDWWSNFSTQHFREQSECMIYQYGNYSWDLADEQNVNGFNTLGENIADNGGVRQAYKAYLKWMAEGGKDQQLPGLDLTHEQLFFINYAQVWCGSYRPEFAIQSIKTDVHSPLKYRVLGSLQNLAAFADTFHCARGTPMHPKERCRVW

SMILES strings stand for the structures. pIC50: −log10 of the molar value.

Experiment [1] addresses soluble, human recombinant NEP (Homo sapiens, UniProt P08473). Description: In-vitro investigation of the NEP inhibitory action (fluorescence-quenched Big-ET-1 analogue, HPLC). As to conditions: read-out: IC50 (NEP). Here is the method:
1. In-Vitro Investigation of the NEP Inhibitory Action of the Substances
In this test, the measure of the inhibitory activity of the substances which was determined was their IC50 value. The IC50 value of a test substance having enzyme-inhibitory activity is that concentration of the test substance at which 50% of the enzymatic activity of the NEP is blocked.
70 μl test buffer, 10 μl enzyme working solution and 10 μl test substance solution were mixed in an Eppendorf vessel and preincubated at 37° C. for 15 minutes (=min.). Then 10 μl substrate stock solution was added and the test batch was incubated for 60 minutes at 37° C. The enzymatic reaction was then ended by 5-minutes' heating to 95° C. […]
All the peptides were detected by absorption at 214 nm and by fluorescence with an excitation wavelength of 328 nm and an emission wavelength of 393 nm.
Upon enzymatic cleavage of the peptide, the fluorophore (=Mca) and the quencher end up in different peptide fragments, which reduces the effectiveness of the quench. […] The increasing fluorescence signal (corresponds to the area, A) of the HPLC peak of the peptide with the non-quenched Mca fluorophore is used for the further calculations. […]
All the samples were measured in duplicates and average values were calculated therefrom. […]

Experiment [2] has as its target His6-tagged hSEP ectodomain (Homo sapiens, UniProt Q495T6). Description: In vitro investigation of the hSEP-inhibitory action (fluorescence-quenched Big-ET-1 analogue, HPLC). The settings on record: read-out: IC50 (hSEP). Here is the method: 2. In Vitro Investigation of the hSEP-Inhibitory Action of the Substances
In this test, the measure of the inhibitory activity of the substances which was determined was their IC50 value. The IC50 value of a test substance having enzyme-inhibitory activity is that concentration of the test substance at which 50% of the enzymatic activity of the hSEP is blocked.
The test and the HPLC procedure were carried out analogously to the manner set forth above for determining the in vitro inhibitory action of the test substances on NEP. 10 nM phosphoramidon served as standard inhibitor in the HPLC procedure. In this test model the test substances of Formula I listed in the following Table 2 had the IC50 values given below: […]

Consider `COc1ccc(CCNC(=O)CC(CC2(C(=O)N[C@H]3CCc4ccccc4N(CC(=O)O)C3=O)CCCC2)C(=O)O)cc1` (some centres unmarked), for which the pIC50 in experiment [1] is 7.81; in experiment [2] it was 8.47.
